Source: US20100129319A1, “TREATMENT OF DISEASE OR INJURY OF THE NERVOUS SYSTEM USING AGENTS THAT DECREASE THE ACTIVITY OF THE MELANOCORTIN 4 RECEPTOR” (priority 2006, published 2010)

Sequences of proteins named here, by UniProt entry; tags and fusion partners are left off.
UniProt P32245, whole entry: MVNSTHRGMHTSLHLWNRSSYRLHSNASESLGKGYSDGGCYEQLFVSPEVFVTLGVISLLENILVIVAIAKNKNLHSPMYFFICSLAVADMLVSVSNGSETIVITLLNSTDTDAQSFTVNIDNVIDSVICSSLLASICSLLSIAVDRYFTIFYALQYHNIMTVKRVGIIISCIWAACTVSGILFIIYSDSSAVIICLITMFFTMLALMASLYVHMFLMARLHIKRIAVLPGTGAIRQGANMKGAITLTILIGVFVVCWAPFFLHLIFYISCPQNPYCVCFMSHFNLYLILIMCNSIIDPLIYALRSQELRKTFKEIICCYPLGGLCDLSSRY

Target: MC4R (Homo sapiens, UniProt P32245)
Test: MC4R IC50 (nM)^a
Settings: read-out: MC4R IC50 (nM)^a

- IC50: < 0.1 nM
SMILES: CC(C)(C)CC(=O)N1CCN(C(=O)C[C@H](Cc2ccc(Cl)cc2)C(=O)N2CCN(c3ccccc3N(CC3CC3)S(C)(=O)=O)CC2)CC1
